Source: patent US6362218B1, “Brefeldin A derivatives” (Purdue Research Foundation, priority 1997, dated 2002)

Experiments:
Format in all cases: cell-based
MDA-MB-435 = test: NCI human cancer cell line screen, antiproliferative activity, Breast MDA-MB-435; conditions: concentration corresponding to 50% growth inhibition, read-out: cytotoxicity GI50, Breast MDA-MB-435
Procedure: (§1) The new synthesized brefeldin A prodrug candidates and analogs were examined for antiproliferative activity against human cancer cell lines in the National Cancer Institute screen, in which the activity of each compound was evaluated with approximately 55 different cancer cell lines of diverse tumor origins.

HOP-62 = test: NCI human cancer cell line screen, antiproliferative activity, Lung HOP-62; conditions: concentration corresponding to 50% growth inhibition, read-out: cytotoxicity GI50, Lung HOP-62
Procedure: as §1

OVCAR-3 = test: NCI human cancer cell line screen, antiproliferative activity, Ovarian OVCAR-3; conditions: concentration corresponding to 50% growth inhibition, read-out: cytotoxicity GI50, Ovarian OVCAR-3
Procedure: as §1

UACC-62 = test: NCI human cancer cell line screen, antiproliferative activity, Melanoma UACC-62; conditions: concentration corresponding to 50% growth inhibition, read-out: cytotoxicity GI50, Melanoma UACC-62
Procedure: as §1

HCT-116 = test: NCI human cancer cell line screen, antiproliferative activity, Colon HCT-116; conditions: concentration corresponding to 50% growth inhibition, read-out: cytotoxicity GI50, Colon HCT-116
Procedure: as §1

SN12C = test: NCI human cancer cell line screen, antiproliferative activity, Renal SN12C; conditions: concentration corresponding to 50% growth inhibition, read-out: cytotoxicity GI50, Renal SN12C
Procedure: as §1

DU-145 = test: NCI human cancer cell line screen, antiproliferative activity, Prostate DU-145; conditions: concentration corresponding to 50% growth inhibition, read-out: cytotoxicity GI50, Prostate DU-145
Procedure: as §1

Compound: CC1CCCC=CC2CC(O)CC2C(O)[C@H](Sc2ccc(O)cc2)CC(=O)O1 (stereo partly drawn) [Compound 3, 2,3-Dihydro-(3R)-(4′-hydroxyphenylthio)brefeldin A]
- GI50 (MDA-MB-435): 3.3 µM

Compound: CC1CCCC=CC2CC(O)CC2C(O)C(SCCN(C)C)CC(=O)O1 [Compound 4, 2,3-Dihydro-(3R)-(2′-N,N-dimethylaminoethylthiol)brefeldin A]
- GI50 (HOP-62): 540 nM
- GI50 (OVCAR-3): 540 nM

Compound: COC(=O)CSC1CC(=O)OC(C)CCCC=CC2CC(O)CC2C1O [Compound 7, 2,3-Dihydro-(3R)-(methoxycarbonylmethylthiol)brefeldin A]
- GI50 (UACC-62): 6.8 µM

Compound: CC1CCCC=CC2CC(O)CC2C(O)C(SCCN)CC(=O)O1 [Compound 9, 2,3-Dihydro-(3R)-(2′)-aminoethylthio)brefeldin A]
- GI50 (MDA-MB-435): 3.3 µM

Compound: CC1CCCC=CC2CC(O)CC2C(O)C(O)C(O)C(=O)O1 (stereo not drawn) [Compound 26, 2,3-Dihydro-2,3-dihydroxybrefeldin A]
- GI50 (HCT-116): 3.4 µM

Compound: COC(=O)CS(=O)(=O)[C@@H]1CC(=O)OC(C)CCCC=CC2CC(O)CC2C1O (stereo partly drawn) [Compound 27, 2,3-Dihydro(3R)-(methoxycarbonylmethylsulfonyl)brefeldin A]
- GI50 (SN12C): 3.3 µM

Compound: Brefeldin A 8 0-Succinate [Compound 22]
- GI50 (HOP-62): 3400 nM
- GI50 (HCT-116): 17 µM
- GI50 (UACC-62): 1.9 µM
- GI50 (OVCAR-3): 3300 nM
- GI50 (DU-145): 6.8 µM
